Test results reported in PubChem BioAssay (Tox21).
Several values for one entry are separate records, joined by “and”; a condition that tells them apart may be missing. Equal values may be shown once. Only a part is listed here, and it is no random draw. Inconclusive results are not listed. Activity calls are given as the source filed them. Calls follow the shape of the dose curve; as a rule, active = well fitted cell-killing curve with a large enough effect in the repeat runs; inconclusive = weak or mixed curves, or effect the other way; inactive = no such curve, though single readings can be large or run the other way.

Test: qHTS assay to identify small molecule agonists of the farnesoid-X-receptor (FXR) signaling pathway - cell viability counter screen (AID 743218); also: nearly all actives have a fitted effect of over 45% in size
Conditions: FXR-bla HEK293T viability, CellTiter-Glo luminescence, 16 h; at 62.6 µM (top of the series)
Text: U.S. Tox21 Program National Center for Advancing Translational Sciences [NCATS] NIH Chemical Genomics Center [NCGC] U.S. Environmental Protection Agency [EPA] National Institutes of Environmental Health Sciences [NIEHS] National Toxicology Program [NTP] U.S. Food and Drug Administration [FDA] Tox21 Assay Overview: The farnesoid-X-receptor (FXR), a nuclear hormone receptor, is highly expressed in liver, intestine, kidney and adrenal cortex. Natural ligands of FXR are the bile acids (Cholic acid, Chenodeoxy cholic acid etc). FXR is an important regulator of diverse metabolic pathways, including the bile acid homeostasis, lipid and glucose metabolisms. FXR regulates the expression of target genes by binding either as a monomer or as a heterodimer with the retinoid X receptor (RXR). Numerous studies have reported that FXR exerts protective function during cholestasis, diabetes, liver regeneration, and cancer. To identify compounds that activate FXR signaling, GeneBLAzer FXR-UAS-bla HEK 293T cell line (Invitrogen, Carlsbad, CA) containing a beta-lactamase reporter gene under the control of a UAS response element was used to screen the Tox21 10K compound library. The cytotoxicity of the Tox21 compound library against the FXR-bla cell line was tested in parallel by measuring the cell viability using CellTiter-Glo assay in the same wells.
Tox21 Assay Protocol Summary: FXR-bla cells were dispensed at 5000 cells/5uL/well in 1536-well black wall/clear bottom plates using a Multidrop Combi (Thermo Fisher Scientific, Waltham, MA) dispenser. After the assay plates were incubated at 37 C and 5% CO2 for 5 h, 23 nL of compounds dissolved in DMSO, positive controls or DMSO only was transferred to the assay plate by a Pintool station (Kalypsys, San Diego, CA). The assay plates were incubated at 37C for 16 h. After 1 uL of LiveBLAzerTM B/G FRET substrate was added using a Bioraptr Flying Reagent Dispenser (FRD) workstation (Beckman Coulter, Indianapolis, IN), the plates were incubated at room temperature for 2 h, and fluorescence intensity was measured by an Envision plate reader (PerkinElmer, Shelton, CT). For cell viability readout that measures cytotoxicity, 4uL/well of CellTiter-Glo reagent was added into the assay plates using a Bioraptr FRD. After 30 min incubation at room temperature, the luminescence intensity in the plates was measured using a ViewLux plate reader (PerkinElmer).
% is scaled to controls: 0 for no effect and ±100 for the full control effect.

Row | SMILES | viability change, negative = cytotoxic
1 | COP(C)(=O)OC | inactive: -0.304%
2 | Cc1ccc([N+](=O)[O-])c([N+](=O)[O-])c1 | inactive: 0.656%
3 | Cc1ccc([N+](=O)[O-])cc1[N+](=O)[O-] | inactive: -11.9% and inactive: 11%
4 | CC(C)N(CCO)C(C)C | inactive: -10%
5 | OCCSCCO | inactive: -24.4%
6 | Cc1cccc([N+](=O)[O-])c1[N+](=O)[O-] | inactive: -19.3%
7 | [NH4+].[O-][Cl+3]([O-])([O-])[O-] | inactive: 17.1%
8 | C/C1=C2N=C(/C=C3N=C(/C(C)=C4\[N-][C@@](C)([C@@H]5N=C1[C@](C)(CCC(=O)NC[C@@H](C)OP(=O)([O-])O[C@H]1[C@@H](O)[C@@H](n6cnc7cc(C)c(C)cc76)O[C@@H]1CO)[C@H]5CC(N)=O)[C@@](C)(CC(N)=O)[C@@H]4CCC(N)=O)[C@@](C)(CC(N)=O)[C@@H]\3CCC(N)=O)C(C)(C)[C@@H]/2CCC(N)=O.[C-]#N.[Co+3] | inactive: -4.98%
9 | CCOP(=O)(CC)OCC | inactive: 1.07%
10 | CP(=O)(O)OCCC[Si](O)(O)O | inactive: 0.719%
11 | O=[N+]([O-])[O-].[NH4+] | inactive: 14.8%
12 | Cc1c([N+](=O)[O-])cccc1[N+](=O)[O-] | inactive: -0.88% and inactive: 6.68%
13 | O=[N+]([O-])OCC(CO[N+](=O)[O-])(CO[N+](=O)[O-])CO[N+](=O)[O-] | inactive: -0.0782%
14 | CC(C)OP(C)(=O)OC(C)C | inactive: 5.28% and inactive: -6.71%
15 | COc1ccc([N+](=O)[O-])cc1[N+](=O)[O-] | inactive: 1.72%

Same assay, conditions: FXR-bla HEK293T viability, CellTiter-Glo luminescence, 16 h; at 81.1 µM (top of the series)

Row | SMILES | viability change, negative = cytotoxic
16 | COP(C)(=O)OC | inactive: -1.47%
17 | Cc1ccc([N+](=O)[O-])c([N+](=O)[O-])c1 | inactive: 4.81%
18 | OCCSCCO | inactive: 11.7%
19 | [NH4+].[O-][Cl+3]([O-])([O-])[O-] | inactive: 8.91%
20 | N=C(N)N[N+](=O)[O-] | inactive: 10.2%
